Our source for the IC50 values is ChEMBL document CHEMBL1157167, “Structural insights into how irreversible inhibitors can overcome drug resistance in EGFR” (Bioorg Med Chem, 2008).

This assay addresses Proto-oncogene tyrosine-protein kinase Src (Gallus gallus, UniProt P00523, S345C/T338M). Briefly: Inhibition of drug-resistant chicken cSrc double mutant expressed in Escherichia coli.

For orientation: IC50 means the concentration needed to halve the response being measured.

In turn, `CN(C)C/C=C/C(=O)Nc1ccc2ncnc(Nc3cccc(Br)c3)c2c1` registered an IC50 of 5.71 µM.
